This note sets out measurements from PubChem BioAssay AID1996.

For this data set the following is noted: buffer; pH 7.4; 200.0 µM.

Values after ≈ are worked out from the molar mass of the structure shown. Bounds are passed on as bounds.

As usually defined, the kinetic solubility is the concentration staying in solution when a stock, usually in DMSO, is diluted into the medium. As to `Cc1ccc(C(=O)Nc2nc(-c3ccccn3)cs2)s1`, the solubility (kinetic) was 4.6 µg/mL (≈ 15.3 µM).

As to `O=C(O)CCCC[C@@H]1SC[C@@H]2NC(=O)N[C@@H]21`, the solubility (kinetic) was over 36.6 µg/mL.
